This note sets out measurements from patent US9260430B2, “Use of TRPA1 antagonists to prevent or treat infections caused by biological-warfare agents” (dated 2016).

Protein sequences, listed by entry. Tags and fused reporters are not part of them.
UniProt O75762, whole entry, looked up: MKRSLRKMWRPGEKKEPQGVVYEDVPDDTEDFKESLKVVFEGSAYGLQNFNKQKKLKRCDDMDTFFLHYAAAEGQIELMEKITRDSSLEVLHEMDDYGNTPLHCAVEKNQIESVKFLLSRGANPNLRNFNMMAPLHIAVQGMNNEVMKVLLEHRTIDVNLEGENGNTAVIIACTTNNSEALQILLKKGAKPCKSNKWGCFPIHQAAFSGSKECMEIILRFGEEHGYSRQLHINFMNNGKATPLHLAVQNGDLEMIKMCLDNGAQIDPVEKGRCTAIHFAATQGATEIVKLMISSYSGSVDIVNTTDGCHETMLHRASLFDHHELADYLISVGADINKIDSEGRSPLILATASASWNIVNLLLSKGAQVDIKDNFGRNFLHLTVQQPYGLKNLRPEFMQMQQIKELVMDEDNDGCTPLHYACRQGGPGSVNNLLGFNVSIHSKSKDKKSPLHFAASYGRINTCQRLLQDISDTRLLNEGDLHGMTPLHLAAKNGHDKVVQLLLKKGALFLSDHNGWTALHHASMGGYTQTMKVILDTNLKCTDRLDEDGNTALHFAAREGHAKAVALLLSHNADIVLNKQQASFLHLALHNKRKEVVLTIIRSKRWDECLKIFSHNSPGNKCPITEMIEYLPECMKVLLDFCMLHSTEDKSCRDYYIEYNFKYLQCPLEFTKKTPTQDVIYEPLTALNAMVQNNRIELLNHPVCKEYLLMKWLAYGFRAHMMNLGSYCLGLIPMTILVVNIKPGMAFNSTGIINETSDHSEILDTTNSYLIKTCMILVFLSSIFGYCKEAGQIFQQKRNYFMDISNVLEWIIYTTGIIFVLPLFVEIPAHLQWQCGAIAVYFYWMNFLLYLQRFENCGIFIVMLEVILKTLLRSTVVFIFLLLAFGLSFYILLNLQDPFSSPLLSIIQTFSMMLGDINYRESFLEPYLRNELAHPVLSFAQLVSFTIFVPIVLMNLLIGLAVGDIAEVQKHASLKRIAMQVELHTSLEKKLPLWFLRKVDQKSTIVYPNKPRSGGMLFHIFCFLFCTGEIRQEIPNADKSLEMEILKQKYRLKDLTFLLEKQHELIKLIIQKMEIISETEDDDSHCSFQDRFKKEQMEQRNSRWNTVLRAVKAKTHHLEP
UniProt Q6RI86, whole entry, looked up: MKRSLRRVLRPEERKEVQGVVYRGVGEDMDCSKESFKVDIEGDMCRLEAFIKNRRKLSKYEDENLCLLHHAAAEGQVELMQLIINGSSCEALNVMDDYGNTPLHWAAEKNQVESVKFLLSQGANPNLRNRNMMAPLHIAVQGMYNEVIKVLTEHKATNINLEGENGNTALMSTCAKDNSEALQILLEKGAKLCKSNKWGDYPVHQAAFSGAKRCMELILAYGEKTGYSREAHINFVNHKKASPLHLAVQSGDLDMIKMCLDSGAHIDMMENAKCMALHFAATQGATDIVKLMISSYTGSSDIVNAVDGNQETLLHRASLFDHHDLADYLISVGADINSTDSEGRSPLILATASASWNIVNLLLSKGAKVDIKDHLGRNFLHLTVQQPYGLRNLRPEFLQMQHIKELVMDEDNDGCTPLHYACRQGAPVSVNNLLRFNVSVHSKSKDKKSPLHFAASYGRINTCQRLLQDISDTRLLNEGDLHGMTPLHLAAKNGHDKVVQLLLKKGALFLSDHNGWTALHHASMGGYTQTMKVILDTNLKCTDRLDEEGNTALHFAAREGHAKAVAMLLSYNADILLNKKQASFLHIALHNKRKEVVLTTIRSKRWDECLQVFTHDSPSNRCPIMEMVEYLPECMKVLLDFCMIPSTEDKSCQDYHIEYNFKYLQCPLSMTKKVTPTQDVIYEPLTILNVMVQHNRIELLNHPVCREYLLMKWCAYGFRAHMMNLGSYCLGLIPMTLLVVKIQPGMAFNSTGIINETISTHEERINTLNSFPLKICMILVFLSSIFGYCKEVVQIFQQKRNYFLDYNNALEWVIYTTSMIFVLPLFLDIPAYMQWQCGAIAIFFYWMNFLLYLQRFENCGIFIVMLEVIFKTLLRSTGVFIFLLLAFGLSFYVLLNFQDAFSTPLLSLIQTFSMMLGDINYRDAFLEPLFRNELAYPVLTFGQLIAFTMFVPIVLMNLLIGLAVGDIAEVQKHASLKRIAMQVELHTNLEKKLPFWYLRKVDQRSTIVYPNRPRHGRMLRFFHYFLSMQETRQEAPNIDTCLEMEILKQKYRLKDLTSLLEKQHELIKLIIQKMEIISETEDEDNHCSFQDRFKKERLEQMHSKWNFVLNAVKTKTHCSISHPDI

One test deals with human TRPA1 (Homo sapiens, UniProt O75762). The test is described as follows: FLIPR assay, AITC induced activation.
In another test the target is rat TRPA1 (Rattus norvegicus, UniProt Q6RI86). The test is described as follows: Rat TRPA1 potency.

Turning to `CCC(=N\O)/C(C)=C/c1ccc(F)cc1`, the “improvement in human potency over AP18 (36)” value on human TRPA1 is reported as “over 100 fold”. At rat TRPA1, the “improvement in rat potency over AP18 (36)” value is listed as “greater than 20 fold”.
